{"sequences": {"note": "Protein sequences, listed by entry. Tags and fused reporters are not part of them. Residues count along the entry.", "UniProt P10636, 1-441 isoform 8": "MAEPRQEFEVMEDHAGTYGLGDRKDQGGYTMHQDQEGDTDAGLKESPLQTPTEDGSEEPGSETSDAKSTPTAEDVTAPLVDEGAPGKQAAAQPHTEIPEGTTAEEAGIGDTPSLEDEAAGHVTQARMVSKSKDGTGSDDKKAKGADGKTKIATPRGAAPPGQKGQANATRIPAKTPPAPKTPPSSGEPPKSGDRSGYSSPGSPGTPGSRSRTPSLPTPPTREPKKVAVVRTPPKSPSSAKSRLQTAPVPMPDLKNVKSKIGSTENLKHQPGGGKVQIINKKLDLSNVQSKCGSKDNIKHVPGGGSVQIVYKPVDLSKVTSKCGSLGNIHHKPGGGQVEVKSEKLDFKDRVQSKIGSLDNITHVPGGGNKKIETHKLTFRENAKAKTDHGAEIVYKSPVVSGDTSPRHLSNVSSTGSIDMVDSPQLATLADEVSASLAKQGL"}, "source": "patent US20220354835A1", "about": "“COMPOUNDS FOR DEGRADING TAU PROTEIN AGGREGATES AND USES THEREOF” (Aprinoia Therapeutics Limited, priority 2019, published 2022)", "key": {"[1]": {"molecular_target": "T1, heparin-induced aggregated tau (aTau), full-length 2N4R human Tau (Homo sapiens, UniProt P10636)", "assay": "PBB5 competition assay", "details": "0.12 μM aTau", "procedure": "(§1) (A) Expression and purification of human Tau: 1 mM IPTG (Sangon Biotech, Cat. No A100487) was used to induce production of tau by bacteria (BL21, Invitrogen, Cat. No C600003) transformed with a full-length 2N4R tau expression plasmid. After 3 hours, cell pellet was resuspended in lysis buffer (100 mM PIPES, 1 mM EGTA, 1 mM MgSO4, pH 6.8) and lysed by sonication followed by centrifugation (15,000 rpm, 15 min, 4° C.). The supernatant was then placed in a boiling water bath for 20 min, followed by centrifugation (15,000 rpm, 15 min, 4° C.). […] Protein concentration was determined by UV absorption. […]\n(E) PBBS competition assay: 2 μM of aTau was diluted to 0.12 μM by […] (pH 6.8) and then incubated with 0.1 μM 2-(4-(2-(methylamino)pyridine-5-yl)-1,3-butadiene-1-yl)benzothiazole-6-ol (PBB5) and serially diluted compound (three-fold serial dilution, from 10 to 0.00017 μM) in a 96-well plate (Corning, Cat. No 3573) at 37° C. for 1 hour. Fluorescence intensity (excitation/emission=530/690 nm) of PBB5 was read by microplate spectrometer (EnSpire 2300, PerkinElmer). Percentage of competition was calculated using the following equation: (Max−well of compound alone)/(Max−Min)*100%, where Max=(Tau+PBB5) signals−(buffer+PBB5) signals; and Min=(buffer+PBB5) signals−(buffer+PBB5) signals. […]"}, "[2]": {"molecular_target": "T1, heparin-induced aggregated tau (aTau), full-length 2N4R human Tau", "assay": "In vitro fluorometric aTau binding assay", "details": "0.04 μM aTau, serially diluted compound 10 to 0.00017 μM, 37° C. 1 hour, fluorescence", "procedure": "as §1\n(D) In vitro fluorometric aTau binding assays: 2 μM aTau was diluted to 0.04 μM with 30 mM Tris-HCl (pH 6.8), and then incubated with serially diluted compound (three-fold serial dilutions, from 10 to 0.00017 μM) in a 96-well plate (Corning, Cat. No 3573) at 37° C. for 1 hour. Fluorescence intensity (excitation/emission=370/500 nm) of APN-0729 was read by microplate spectrometer (EnSpire 2300, PerkinElmer). Compound Kd values were calculated using the following equation: Y=Bmax* X (Kd+X), where X is the concentration of compound; Y is the fluorescence signal of (compound+aTau)−(compound+DMSO); and Bmax is the maximum signal."}}}
{"smiles": "CN(C)c1ccc2nc(-c3ccc(-c4ccc(NCCOCCN5C(=O)CCC(N6Cc7cc(O)ccc7C6=O)C5=O)nc4)cc3)sc2c1", "note": "(stereo not drawn)", "values": [{"measurement": "Competition Assay with PBB5: Bmax (%)", "setting": "[1]; 0.1 μM PBB5, compound up to 10 μM", "result": "=100%"}, {"measurement": "IC50", "setting": "[1]; read-out: Competition Assay with PBB5: PBB5, 0.1 μM PBB5, 37° C. 1 hour, PBB5 fluorescence 530/690 nm", "result": 550, "unit": "nM"}, {"measurement": "Kd", "setting": "[2]", "result": 120, "unit": "nM"}]}
